Assay results reported in publication PMC5754411 (Cancer Chemotherapy and Pharmacology, 2017).

Protocol: Signed and dated written informed consent was obtained from each patient before participation in the study and before the performance of any procedures. After informed consent was obtained, eligible participants were given the choice to be admitted to the clinical research unit on day − 1 or on day 1. A summary of the study design can be found in Fig. 1. […] Subjects continued fasting until 2 h after the start of the IV infusion, at which time a non-standardised light meal was served. The radiolabelled dose contained approximately 100 nCi (3.7 kBq) radioactivity and was administered into one arm of the subject; the contralateral arm was used for pharmacokinetic sampling and clinical laboratory blood draws. The syringe for IV drug administration was connected to a Perfusor Space Infusion Pump (B. Braun), which was set to administer 7 mL in 15 min. Blood samples were taken pre-dose and at 1, 1.5, 2 (just before start of IV infusion), 2.125 (halfway through the IV infusion), 2.25 (just before end of infusion), 2.33, 2.66, 3, 4, 6, and 12 h. Sampling was done on each morning of days 2, 3, 4, 5, 7, 9, 11, 13, 15, and 22. Plasma was divided in two sets: one set was sent to Xceleron Inc. (Germantown, MD, USA) for the determination of plasma concentrations of the ^14C-microtracer by AMS, and the other set was stored at the Antoni van Leeuwenhoek Hospital until it received pharmacokinetic analysis at the Good Laboratory Practice–licensed laboratory of the pharmacy. Plasma was separated from blood by centrifugation (3,000 rpm, 15 min, 4 °C) and was stored frozen at ≤ − 70 °C in polypropylene tubes before and after analysis. […] Vital signs assessments, haematology assessment, and blood chemistry assessments were done frequently to make sure that the patients were still in sufficient condition to remain on treatment. […] The study was approved by the local independent ethics committee and was conducted in accordance with local regulations, the Declaration of Helsinki, and International Conference on Harmonisation Good Clinical Practice Guidelines.
Total ^14C-radioactivity concentrations in plasma samples were determined using AMS. Plasma samples were directly aliquoted into tubes containing copper oxide powder (CuO). The samples were graphitised and analysed by a Single Stage Accelerator Mass Spectrometer (SSAMS) 250 kV system (National Electrostatics Corp., Middleton, WI, USA). […] Samples were analysed by an Agilent 1200 HPLC system (Agilent Technologies, Palo Alto, CA, USA) equipped with a wavelength UV detector set to 254 nm. Separation was achieved using a Phenomenex Kinetex 2.6 µ biphenyl column (100 Å, 100 × 3.0 mm). Mobile phase A and B consisted of 20 mM ammonium acetate in water and 0.1% formic acid in acetonitrile–methanol (50:50, v/v), respectively. Column oven temperature was set at 40 °C, and run-time was 18 min. […] The fractions were graphitised and analysed by SSAMS. Each batch of experimental samples was run against freshly prepared calibration standards at seven concentrations in duplicates. Replicate quality control samples at three concentrations were stored and also analysed alongside study samples. Finally, F po was calculated as the ratio of the dose-normalised AUC of the oral dose to the IV dose.

[1] = 100 µg IV 14C-niraparib, plasma, n = 6

^14C-niraparib
CL (100 µg IV 14C-niraparib): 5.90 L·h
C max (100 µg IV 14C-niraparib, 15-min infusion, plasma, n = 6): 4.19 ng-equivalents/mL and 4.19 (45.0) ng-equivalents/mL
CL (100 µg IV 14C-niraparib, n = 6): 5.90 (64.1) L/h
V d (100 µg IV 14C-niraparib, n = 6): 194 (22.1) L
AUC0–inf [1]: 21.5 (49.3) ng-equivalents × h/mL
AUC0–last [1]: 16.4 (53.1) ng-equivalents × h/mL
t ½ [1]: 28.2 (43.9) h
Difference between AUC of 14C-niraparib and total 14C-radioactivity (100 µg IV 14C-niraparib, indicates extensive metabolism): more than tenfold
C max of 14C-niraparib dose lower than that of unlabelled niraparib dose (100 µg IV vs 300 mg oral): 303 fold
Time up to which 14C-radioactivity could be measured in plasma (after dosing, all six patients): up to 504 h
Hepatic extraction ratio (from CL, assuming hepatic blood flow approximately 80 L/h): very low
Last time point at which 14C-niraparib was detected in plasma by AMS (post-dose, 100 µg IV): ≤ 96 h

Where “and” joins values, the source holds several entries; their conditions need not be identical. Equal entries are not always repeated. Where two headings read alike, the source gives them in different places.
